## Measured affinities in a library of Ab-14 heavy chain variants

From the AlphaSeq antibody data of Engelhart et al. 2022 (doi:10.1038/s41597-022-01779-4), copy in the FLAb collection.

Target: peptide PDVDLGDISGINAS, taken from heptad repeat 2 (HR2) of SARS-CoV-2 spike.

Each scFv is VH, a (GGGGS)3 linker, VL, as in the parent Ab-14, and differs from it in the CDRs of the heavy chain only.
VH: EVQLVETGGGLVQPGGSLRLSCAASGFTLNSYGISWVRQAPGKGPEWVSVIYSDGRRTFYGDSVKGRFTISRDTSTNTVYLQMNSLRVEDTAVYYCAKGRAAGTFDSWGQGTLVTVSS
VL: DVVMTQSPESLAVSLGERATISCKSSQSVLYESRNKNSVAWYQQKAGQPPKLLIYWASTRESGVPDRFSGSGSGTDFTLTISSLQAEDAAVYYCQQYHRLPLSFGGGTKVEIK

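The parent was found by panning a naive human phage display library on the peptide. AAYL49 was designed without a model: most single CDR substitutions and a random sample of double and triple ones. The assay is AlphaSeq: two haploid yeast populations carry antibody and antigen on their surface. The frequency of each diploid, read from paired DNA barcodes, reflects how well the two displayed proteins bind. Scores were corrected for input abundance and mapped to Kd with protein pairs of known affinity run in the same pool. Each pool was mated in three replicate cultures.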

The parent's heavy chain CDRs are GFTLNSYGIS, VIYSDGRRTFYGDSVK, GRAAGTFDS; each variant's own CDRs replace them letter for letter.
Every variant below is changed at S63 of the VH (sequential numbering).
Each Kd is an estimate from the mating assay, the geometric mean of the replicates in which the pair was seen; lower is stronger.
An entry "not detected" has no value in the source: the pair was not observed among the diploids in any replicate. This suggests poor binding but is not conclusive.
For reference, the parent read 4.4 nM as the reference entry and 13 µM (one replicate of three) as a member of this library.

CDR-H1,CDR-H2,CDR-H3,Kd,seen in
GFTLNSYGIS,VIYSDGRRGFYGDLVK,GRASGTFDS,not detected,0/3
GFMLNSYGIS,VIYSDGRRTFYGDFVK,GRAAGTFDS,210 nM,3/3
GFTLNSYEIS,NIYSDGRRTFYGDTVK,GRAAGTFDS,19 µM,1/3
GFTLNSYGIS,PIYSDGRRTFYGDEVK,GRAAGTFGS,520 µM,1/3
GCTLNSYGIS,VIYSDGRRNFYGDGVK,GRAAGTFDS,not detected,0/3
IFTLSSYGIS,VIYSDGRRTFYGDPVK,GRAAGTFDS,1.4 µM,1/3
GFTLPSYGIS,VIYSDGRRTFYGDKVK,GRAAGTFDS,100 nM,3/3
GFTLNSYGIS,VIYSDGRRTFYGDNVK,GRAAGTFDL,1.9 nM,3/3
GFTLNSYGIS,VIYSDGRRCFYGDAVK,GRAPGTFDS,19 µM,1/3
GFTLNSYGIS,VIYSDGRRTFYGDPVK,GRAFGTFDS,not detected,0/3
GFTLNSYGIS,VIASDGRRTFYGDAVT,GRAAGTFDS,3.2 µM,1/3
GFTLNSYWIS,VIYSDGRRTRYGDQVK,GRAAGTFDS,1.8 µM,3/3
GFTLNSYGIS,PIYSDGRRTFYGDPVK,GRAAATFDS,not detected,0/3
FFTLNSYGIS,VIYSDGRRTFYGDTVK,GRAAGPFDS,not detected,0/3
GFTLNSYGIS,VIYSDGRRTFYLDRVK,GRAAGTHDS,not detected,0/3
GFTRNSYGIS,VIYSDGRRTFYGDYVK,GRAAGTHDS,72 µM,1/3
GFTLNSYHIS,VIYSDGRRTFYGDLVV,GRAAGTFDS,3.4 µM,1/3
GFTLNSYGIS,VIYSDGRNTFYGDYVK,GRARGTFDS,not detected,0/3
GFTLNSYGIS,VIYSDGRRTFYGDIVF,GRAAGTFDS,not detected,0/3
GFTLNSYGIS,VIYSDGRRTFYGDAVK,GQAAGTFDS,3.5 nM,3/3
GFTLNSYGIS,VIYSDGRATFYGDGVK,GRAANTFDS,1.3 µM,1/3
GFTLNSYGIR,VIYSDGRRTFYGDVVK,GRAAGSFDS,not detected,0/3
GFTLNSYGIS,VIYSDGRRTFYGDRVH,GRAAGTFDS,110 nM,1/3
GFTLNSYGIS,VILSDGRRTFYGDPVK,GRLAGTFDS,not detected,0/3
GFTLNSYGIS,VIYSDGRRTFYGDFVK,KRAAATFDS,2.5 µM,1/3
GFTLNSYGWS,VIYSGGRRTFYGDWVK,GRAAGTFDS,260 nM,1/3
GFTLNSCGIS,VIYSDPRRTFYGDWVK,GRAAGTFDS,not detected,0/3
GFTLNSYGIS,VIYSDGRRTFHGDTVK,GRAATTFDS,1.9 µM,3/3
AFTLNSYGIS,VIYSDGRRTFYGDRVK,TRAAGTFDS,not detected,0/3
GFTLNGYGIS,VIYSDGRRTFYGDEVK,GRAAGTFDS,6.6 µM,1/3
GTTLNSYGIS,VIYSDGRRTFYGDTVK,GRPAGTFDS,14 µM,2/3
GFTLNSYGSS,VIYSDGRRWFYGDQVK,GRAAGTFDS,100 µM,2/3
GFTLNSYGIS,VIYSDGRRTFYGDNVK,GSAAGPFDS,not detected,0/3
GFTLNSYGIS,AIYSDGRRTFYGDMVK,GRKAGTFDS,58 µM,2/3
GFTLNSYGIS,VIYSDGRRTFMGNTVK,GRAAGTFDS,170 nM,3/3
GFTLNSYGIS,VIYSDGRRTFYNDCVK,NRAAGTFDS,3.9 µM,1/3
GFTLNSYGIS,VIYSDGRRTFYGDIVQ,GRAWGTFDS,not detected,0/3

The first 6 entries again:

CDR-H1,CDR-H2,CDR-H3,Kd,seen in
GFTLNSYGIS,VIYSDGRRGFYGDLVK,GRASGTFDS,not detected,0/3
GFMLNSYGIS,VIYSDGRRTFYGDFVK,GRAAGTFDS,210 nM,3/3
GFTLNSYEIS,NIYSDGRRTFYGDTVK,GRAAGTFDS,19 µM,1/3
GFTLNSYGIS,PIYSDGRRTFYGDEVK,GRAAGTFGS,520 µM,1/3
GCTLNSYGIS,VIYSDGRRNFYGDGVK,GRAAGTFDS,not detected,0/3
IFTLSSYGIS,VIYSDGRRTFYGDPVK,GRAAGTFDS,1.4 µM,1/3

Empty control strains, which show no peptide, gave a signal in 15% of pairings with library AAYL49; the median was 11 µM and 95% of these signals were weaker than 680 nM. No background was subtracted.